Assay results taken from patent US12023390B2, “Isomerically pure 18F-labelled tetrahydrofolates” (MERCK PATENT GMBH, priority 2017, dated 2024).

Tested on: KB tumor xenografts
Conditions: for excretion pathway: concluded from biodistribution and PET imaging results

Row | Substance | excretion pathway | PET/CT: kidneys (scans 1 h, 2 h, 3 h p.i.) | PET/CT: radioactivity accumulation in the liver (scans 1 h, 2 h, 3 h p.i.) | PET/CT: salivary glands (scans 1 h, 2 h, 3 h p.i.)
1 | 6R-3′-aza-2′-[^18F]fluoro-5-MTHF [6R-[^18F]1] | excreted mainly via the hepatobiliary pathway | clearly visualized 1 h p.i. with 6R-[^18F]1, but nearly invisible at 3 h p.i. | Radioactivity accumulation in the liver was mainly observed | –
2 | 6S-3′-aza-2′-[^18F]fluoro-5-MTHF [6S-[^18F]1] | excreted preferably via the renal pathway | high kidney accumulation | – | high radioactivity uptake
